Values of other authors in patent publication EP0719130B1, “COMPLEX CALCIUM AND FLUORIDE CONTAINING MOUTH RINSES, DENTIFRICES, AND CHEWABLE TABLETS” (AMERICAN DENTAL ASSOCIATION HEALTH FOUNDATION, priority 1993, dated 1995).

Conditions: buffer acid or salt

Lysine salts
pK: 10.5

aspartate salts
pK: 9.8

butyrate salts
pK: 4.8

glycine salts
pK: 9.8
